The numbers were not newly measured in patent US20250129012A1, “ANTI-INFLAMMATORY AND ANALGESIC COMPOUNDS AND USE THEREOF” (JIANGSU ATOM BIOSCIENCE AND PHARMACEUTICAL CO., LTD., priority 2021, published 2025), which cites them from elsewhere.

SMILES strings stand for the structures.

For this data set the following is noted: generally believed; cited from earlier work.

For `COc1cc2c(c(OC)c1OC)-c1ccc(OC)c(=O)cc1[C@@H](NC(C)=O)CC2` [colchicine, reference compound], the “Dose toxic to the body” value is 0.5 to 0.8 mg/kg and the Fatal dose entry is given as “higher than 0.8 mg/kg”.
